From publication PMC8837141, “Structural and Functional Differences between Homologous Bacterial Ribonucleases” (International Journal of Molecular Sciences, 2022)

Columns and labels:
[1] = molecular target: balifase (Bacillus licheniformis)
[2] = molecular target: T1, binase (Bacillus pumilus) (UniProt P00649)
T1 sequence: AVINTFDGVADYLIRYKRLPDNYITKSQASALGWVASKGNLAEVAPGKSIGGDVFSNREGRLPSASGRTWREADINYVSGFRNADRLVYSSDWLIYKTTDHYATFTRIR

IC50 of barstar for inhibition of cleavage of the G^ds RNA substrate by balifase (gel of the products; 0.7 µM enzyme, 1 µM substrate, 0.33–5.3 µM barstar) [1]: 2100 nM
enzyme to barstar ratio at which complete inhibition of cleavage of the G^ds RNA substrate by balifase was achieved (barstar per enzyme) [1]: 4
IC50 of barstar for inhibition of cleavage of the G^ds RNA substrate by binase (gel of the products; 0.7 µM enzyme, 1 µM substrate, 0.33–5.3 µM barstar) [2]: 1000 nM
enzyme to barstar ratio at which complete inhibition of cleavage of the G^ds RNA substrate by binase was achieved (barstar per enzyme) [2]: 2
Substance: barstar (from UniProt P11540 1-90) (natural protein)
